{"sequences": {"note": "Sequences of proteins named here, by UniProt entry; tags and fusion partners are left off.", "UniProt Q9Y570, whole entry": "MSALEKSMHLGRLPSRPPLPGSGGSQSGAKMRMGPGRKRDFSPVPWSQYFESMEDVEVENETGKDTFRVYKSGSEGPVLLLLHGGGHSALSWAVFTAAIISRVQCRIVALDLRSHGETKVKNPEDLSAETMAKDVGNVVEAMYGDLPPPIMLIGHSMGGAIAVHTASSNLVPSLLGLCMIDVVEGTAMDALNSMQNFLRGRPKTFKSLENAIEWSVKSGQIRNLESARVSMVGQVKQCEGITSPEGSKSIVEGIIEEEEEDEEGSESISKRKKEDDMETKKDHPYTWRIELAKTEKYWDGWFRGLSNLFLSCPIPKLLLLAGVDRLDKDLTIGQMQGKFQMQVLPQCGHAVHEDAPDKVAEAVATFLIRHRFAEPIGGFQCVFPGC"}, "source": "PubChem BioAssay AID2130", "about": "(The Scripps Research Institute Molecular Screening Center, 2009)", "note": "The list shows a part of the results, in another mix than the full data. The source made the active and inactive calls.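 Rule for the calls: active = inhibition above the campaign mean of all compounds plus 3 SD (cut at about 26% in these data); inactive = the rest.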"}
{"molecular_target": "Protein phosphatase methylesterase 1 (Homo sapiens) (UniProt Q9Y570)", "assay": "human PME-1 methylesterase blockers – biochemical, fluorescence polarization, FP-Rh probe, HTS, primary screen (AID 2130);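 note: competitive labeling of PME-1 active site by serine hydrolase directed probe; 0% = PME-1 with DMSO and 100% = wells lacking PME-1 enzyme; inhibitors block probe labeling so polarization falls and inhibition rises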", "details": "recombinant PME-1, FP-Rh probe fluorescence polarization; at 5.9 µM; active compounds read high"}
{"smiles": "O=C(NC1CCS(=O)(=O)C1)NP(=S)(Oc1ccccc1)Oc1ccccc1", "note": "(stereo unspecified)", "inhibition": "inactive: 3.24%"}
